Values quoted from earlier work as cited in patent publication US11472857B2 (Purdue Research Foundation, priority 2015, dated 2022).

Details: acidic (pH<3) and alkaline (pH>9) conditions; cited from earlier work

**Q.** For `CSCC[C@H](NC(=O)[C@H](CC(C)C)NC(=O)[C@H](Cc1c[nH]c2ccccc12)NC(=O)[C@H](CCC(N)=O)NC(=O)[C@@H](NC(=O)[C@H](Cc1ccccc1)NC(=O)[C@H](CC(=O)O)NC(=O)[C@H](CCC(N)=O)NC(=O)[C@H](C)NC(=O)[C@H](CCCN=C(N)N)NC(=O)[C@H](CCCN=C(N)N)NC(=O)[C@H](CO)NC(=O)[C@H](CC(=O)O)NC(=O)[C@H](CC(C)C)NC(=O)[C@H](Cc1ccc(O)cc1)NC(=O)[C@H](CCCCN)NC(=O)[C@H](CO)NC(=O)[C@H](Cc1ccc(O)cc1)NC(=O)[C@H](CC(=O)O)NC(=O)[C@H](CO)NC(=O)[C@@H](NC(=O)[C@H](Cc1ccccc1)NC(=O)[C@@H](NC(=O)CNC(=O)[C@H](CCC(N)=O)NC(=O)[C@H](CO)NC(=O)[C@@H](N)Cc1c[nH]cn1)[C@@H](C)O)[C@@H](C)O)C(C)C)C(=O)N[C@@H](CC(N)=O)C(=O)N[C@H](C(=O)O)[C@@H](C)O` [Glucagon, glucagon], which “Chemical degradation of native glucagon in solution” value is on record?
**A.** known to undergo chemical degradation
